Literature values as cited in US20060252714A1, “Pharmaceutical compositions and methods for treating multidrug resistant cancer” (priority 2003, published 2006).

Details: IV unless otherwise indicated; cited from earlier work

## Interleukin-2: chemotherapy drug listed in Table I
  Toxic dose range: Conventional dose
